Test results taken from patent US20230173042A1, “METHODS OF TREATMENT WITH ASPARAGINASE” (JAZZ PHARMACEUTICALS IRELAND LTD., priority 2017, published 2023).

Columns and labels:
Experiment in all cases: Combination (synergy) cell proliferation assay with pegcrisantaspase
Type in all cases: cell-based
[1] = tested on: HT; conditions: anti-cancer agent in combination with pegcrisantaspase; HT (DLBCL)
Procedure: (§1) Plate preparation. The stocks of the mixtures and single agents were diluted in DMSO or 0.9% sodium chloride to generate a 7-points dose-response series. After further 31.6 times dilution in 20 mM sterile Hepes buffer pH 7.4 (reference compounds) or medium (pegcrisantaspase), 5 μl of pegcrisantaspase solution, and 5 μl of reference compound was added to 40 μl pre-plated cells in duplicate in a 384-well assay plate. The final DMSO concentration during incubation was 0.4% in all wells.
(§2) Cell proliferation assay. A cell assay stock was thawed and diluted in appropriate medium and dispensed in a 384-well plate, depending on the cell line used, at a concentration of 800-3200 cells per well in […]: i.e., DB: 800 cells per well; RL: 1000 cells per well; MV-4-11: 1600 cells per well; KG-1, HL-60 and HT 3200 cells per well. For each used cell line the cell density was optimized previously. The margins of the plate were filled with phosphate-buffered saline. Plated cells were incubated in a humidified atmosphere of 5% CO2 at 37° C. After 24 hours, 5 μl of pegcrisantaspase solution, and 5 μl of reference compound was added, and plates were further incubated for another 72 hours. After 72 hours, plates were cooled in 30 minutes to room temperature and 25 μl of ATPlite 1Step™ (PerkinElmer) solution was added to each well, and subsequently shaken for 2 minutes. After 5 minutes of incubation in the dark at room temperature, the luminescence was recorded on an Envision multimode reader (PerkinElmer).
(§3) Controls: t=0 signal. On a parallel plate, 40 μl cells were dispensed in quadruplicate and incubated in a humidified atmosphere of 5% CO2 at 37° C. After 24 hours, plates were cooled to room temperature in 30 minutes. 5 μl DMSO-containing Hepes buffer, 5 μl 0.9% sodium chloride-containing medium and 25 μl ATPlite 1Step™ solution were added and subsequently mixed for 2 minutes. Luminescence was measured after 10 minute incubation (=luminescencet=0) in the dark.
(§4) Cell growth control. The cellular doubling times of all cell lines are calculated from the t=0 hours and t=end growth signals of the untreated cells. […]
(§5) Maximum signals. On each 384-well plate, the maximum luminescence was recorded after incubation for 72 hours without compound in the presence of 0.4% DMSO. […] This average is defined as: luminescenceuntreated,t=72h. […]
(§6) luminescence=bottom+(top-bottom)/(1+10^(logIC50−log[cpd])−hill))
(§7) [cpd] is the compound concentration tested. hill is the Hill-coefficient. […] The CI is one of the most widely used quantitative indications of synergy. […]
(§8) CI is defined for a certain percentage cell viability (V), which is the signal related to a non-exposed control: V=100%×luminescencetreated,t=72h/luminescenceuntreated,t=72h. […]

[2] = tested on: DB; conditions: anti-cancer agent in combination with pegcrisantaspase; DB (DLBCL)
Procedure: as §1, §2, §3, §4, §5, §6, §7, §8

[3] = tested on: HL-60 cell line; conditions: anti-cancer agent in combination with pegcrisantaspase; HL-60 (AML)
Procedure: as §1, §2, §3, §4, §5, §6, §7, §8

[4] = tested on: KG-1; conditions: anti-cancer agent in combination with pegcrisantaspase; KG-1 (AML)
Procedure: as §1, §2, §3, §4, §5, §6, §7, §8

Row | Compound | conclusion (synergy) [1] | conclusion (synergy) [2] | conclusion (synergy) [3] | conclusion (synergy) [4]
1 | CC[C@]1(O)C[C@H]2CN(CCc3c([nH]c4ccccc34)[C@@](C(=O)OC)(c3cc4c(cc3OC)N(C=O)[C@H]3[C@@](O)(C(=O)OC)[C@H](OC(C)=O)[C@]5(CC)C=CCN6CC[C@]43[C@@H]65)C2)C1 [vincristine] | synergy (CI < 1.0: synergy) | strong synergy (CI < 0.3: strong synergy) | – | –
2 | CC(C)C[C@H](NC(=O)[C@H](Cc1ccccc1)NC(=O)c1cnccn1)B(O)O [bortezomib] | – | – | antagonism | synergy (CI < 1.0: synergy)
